# Source: patent US9855310B2, “Coix seed oil containing 8 triglycerides, and pharmaceutical preparation and use thereof” (ZHEJIANG KANGLAITE GROUP CO., LTD., priority 2014, dated 2018)
# Test system: MDA-MB-435 human breast cancer
# Assay: MDA-MB-435 human breast cancer transplanted in nude mice
# Format: in vivo, BALB/C nude mice
# Conditions: 50 mg/kg, ip × 1
# Procedure: The injection of the invention (10 g/100 ml), Paclitaxel injection (30 mg/5 ml) and normal saline
# MDA-MB-435 human breast cancer: inoculated in BALB/C nude mice (SPF grade), 18-20 g, female
# Tumor blocks of well-grown MDA-MB-435 cancer were homogenized in normal saline to obtain cell suspensions in the concentration of 1-2×10^7 cells/ml. Each nude mouse was inoculated with 0.2 ml of the suspension at the right axilla subcutaneously, and the mice were grouped randomly. The administration began from the 7th day after the inoculation. 18 Days after the inoculation, the mice were sacrificed. Tumor blocks were taken out and weighed. Differences of tumor weight between each experimental group and the control group were compared, and tumor inhibition rates and Q values were calculated.
compound,measurement,value
"CC(=O)O[C@H]1C(=O)[C@@]2(C)[C@H]([C@H](OC(=O)c3ccccc3)[C@]3(O)C[C@H](OC(=O)[C@H](O)[C@@H](NC(=O)c4ccccc4)c4ccccc4)C(C)=C1C3(C)C)[C@]1(OC(C)=O)CO[C@@H]1C[C@@H]2O [Taxol, Paclitaxel]",Weight of tumor (g) x ± SD,1.01 ± 0.33 g
